Experimental data: patent US20140065632A1, “MARKER GENE FOR DETECTION OF TUMOR PROMOTER, AND METHOD FOR DETECTION OF TUMOR PROMOTER” (priority 2007, published 2014)

Legend:
Orm1 = experiment: Quantitative RT-PCR of Orm1 gene expression in the BALB/c 3T3 cell transformation assay; assay type: cell-based, mouse; details: Example 3; MCA-initiated BALB/c 3T3 cells, RNA 48 hours after addition of test substance, normalized by β-actin
BALB/c 3T3 cells = experiment: Transformation assay using BALB/c 3T3 cells (focus formation)
Bhas cells = experiment: Transformation assay using Bhas cells (focus formation); details: Example 4; foci on day 21

With `CN(N=O)C(=N)N[N+](=O)[O-]` the “Expression level of Orm1 (rates relative to the negative control)” value (Orm1) was 1.3, the “ability to form foci in the BALB/c 3T3 cell transformation assay” value (BALB/c 3T3 cells; Example 2) was “unable to form foci” and the “Focus formation in the BALB/c 3T3 cell transformation assay” value (BALB/c 3T3 cells; Example 2/3, foci counted on day 25, significance P<0.05 Wilcoxon vs negative control) was “−”. The “ability to form foci in the Bhas cellular transformation assay” value (Bhas cells) was “unable to form foci”.
